Values of other authors as cited in article PMC11597817, “Modulation of Multispecific Transporters by Uncaria tomentosa Extract and Its Major Phytoconstituents” (Pharmaceutics, 2024).

Tests used:
Rat MDR1 = details: cited from earlier work
MDR1 = details: cited from earlier work

For `CC1(C)C2CCC1(C)C(O)C2` (centres unmarked) [Borneol], the Type of interaction (Rat MDR1) is given as “inhibitor” and the Type of interaction (MDR1) is given as “inhibitor”.
